# Literature values, collected in patent US5935597A, “Drug delivery devices and methods for treatment of viral and microbial infections and wasting syndromes” (Cryopreservation Technologies CC, priority 1995, dated 1999).
# Settings: cited from earlier work
structure (smiles),measurement,setting,value
"CN(C)C=O [DMF, N,N'-dimethylformamide]",unchanged DMF in urine,fraction of administered dose,small fraction of an administered dose
same,excretion,in vivo,excretion occurs principally in the urine
same,metabolism,in vivo,"rapidly metabolized, mainly in the liver"
same,absorption,"through the skin, by inhalation, oral ingestion","readily absorbed through the skin, by inhalation, and upon oral ingestion"
